In PubChem BioAssay (NCI):
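Each compound was tested at five concentrations against cells in 96-well plates for 48 hours. Abbreviation: GI50, concentration required for 50% inhibition of growth. At the TGI there is no net growth.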

Tests used:
Test in all cases: NCI anticancer screen, dose series, 48 h
M14 melanoma = tested on: M14 melanoma
A498 renal = tested on: A498 renal
SNB-75 CNS = tested on: SNB-75 CNS
OVCAR-8 ovarian = tested on: OVCAR-8 ovarian
SF-268 CNS = tested on: SF-268 CNS
HCT-116 colon = tested on: HCT-116 colon
IGROV1 ovarian = tested on: IGROV1 ovarian
SF-539 CNS = tested on: SF-539 CNS
UACC-62 melanoma = tested on: UACC-62 melanoma
HS 578T breast = tested on: HS 578T breast
PC-3 prostate = tested on: PC-3 prostate
CAKI-1 renal = tested on: CAKI-1 renal
MDA-N = tested on: MDA-N
HOP-92 NSCLC = tested on: HOP-92 NSCLC
SN12C renal = tested on: SN12C renal
SK-MEL-5 melanoma = tested on: SK-MEL-5 melanoma
BT-549 breast = tested on: BT-549 breast
UO-31 renal = tested on: UO-31 renal
T-47D breast = tested on: T-47D breast
SK-OV-3 ovarian = tested on: SK-OV-3 ovarian
786-0 renal = tested on: 786-0 renal
NCI/ADR-RES ovarian = tested on: NCI/ADR-RES ovarian
U251 CNS = tested on: U251 CNS
ACHN renal = tested on: ACHN renal
K-562 leukemia = tested on: K-562 leukemia
SK-MEL-28 melanoma = tested on: SK-MEL-28 melanoma
HT29 colon = tested on: HT29 colon
NCI-H23 lung = tested on: NCI-H23 lung
MCF7 breast = tested on: MCF7 breast
HOP-62 NSCLC = tested on: HOP-62 NSCLC
TK-10 renal = tested on: TK-10 renal
SF-295 CNS = tested on: SF-295 CNS
DU-145 prostate = tested on: DU-145 prostate
MALME-3M melanoma = tested on: MALME-3M melanoma
EKVX NSCLC = tested on: EKVX NSCLC
UACC-257 melanoma = tested on: UACC-257 melanoma
LOX IMVI melanoma = tested on: LOX IMVI melanoma
A549 NSCLC = tested on: A549 NSCLC
RXF 393 renal = tested on: RXF 393 renal
HCT-15 colon = tested on: HCT-15 colon
MDA-MB-231 breast = tested on: MDA-MB-231 breast
COLO 205 colon = tested on: COLO 205 colon
OVCAR-4 ovarian = tested on: OVCAR-4 ovarian
NCI-H226 lung = tested on: NCI-H226 lung
SW-620 colon = tested on: SW-620 colon
NCI-H322M lung = tested on: NCI-H322M lung
NCI-H460 lung = tested on: NCI-H460 lung
NCI-H522 lung = tested on: NCI-H522 lung
OVCAR-3 ovarian = tested on: OVCAR-3 ovarian
SK-MEL-2 melanoma = tested on: SK-MEL-2 melanoma
KM12 colon = tested on: KM12 colon
OVCAR-5 ovarian = tested on: OVCAR-5 ovarian
SNB-19 CNS = tested on: SNB-19 CNS
RPMI-8226 leukemia = tested on: RPMI-8226 leukemia
MDA-MB-435 = tested on: MDA-MB-435

How did the GI50 (M14 melanoma) turn out when `NNC(NN)NN.n1nc(-c2nn[nH]n2)n[nH]1` was run?
The GI50 was over 100 µM.

What about the TGI (M14 melanoma) of the same compound?
Its TGI is over 100 µM.

What about the GI50 (A498 renal) of the same compound?
Its GI50 is over 100 µM.

What about the TGI (A498 renal) of the same compound?
Its TGI is over 100 µM.

What about the GI50 (SNB-75 CNS) of the same compound?
The GI50 was over 100 µM.

What about the TGI (SNB-75 CNS) of the same compound?
The TGI was over 100 µM.

And the GI50 (OVCAR-8 ovarian)?
The GI50 was over 100 µM.

And the TGI (OVCAR-8 ovarian)?
Its TGI is over 100 µM.

And the GI50 (SF-268 CNS)?
The GI50 was over 100 µM.

And the TGI (SF-268 CNS)?
The TGI was over 100 µM.

What about the GI50 (HCT-116 colon) of the same compound?
The GI50 was over 100 µM.

What about the TGI (HCT-116 colon) of the same compound?
The TGI was over 100 µM.

What about the GI50 (IGROV1 ovarian) of the same compound?
The GI50 was over 100 µM.

What about the TGI (IGROV1 ovarian) of the same compound?
Its TGI is over 100 µM.

What about the GI50 (SF-539 CNS) of the same compound?
The GI50 was over 100 µM.

And the TGI (SF-539 CNS)?
Its TGI is over 100 µM.

What about the GI50 (UACC-62 melanoma) of the same compound?
Its GI50 is over 100 µM.

What about the TGI (UACC-62 melanoma) of the same compound?
The TGI was over 100 µM.

What about the GI50 (HS 578T breast) of the same compound?
The GI50 was over 100 µM.

And the TGI (HS 578T breast)?
Its TGI is over 100 µM.

And the GI50 (PC-3 prostate)?
The GI50 was over 100 µM.

What about the TGI (PC-3 prostate) of the same compound?
Its TGI is over 100 µM.

And the GI50 (CAKI-1 renal)?
The GI50 was over 100 µM.

What about the TGI (CAKI-1 renal) of the same compound?
The TGI was over 100 µM.

And the GI50 (MDA-N)?
The GI50 was over 100 µM.

What about the TGI (MDA-N) of the same compound?
The TGI was over 100 µM.

What about the GI50 (HOP-92 NSCLC) of the same compound?
Its GI50 is over 100 µM.

And the TGI (HOP-92 NSCLC)?
The TGI was over 100 µM.

And the GI50 (SN12C renal)?
The GI50 was over 100 µM.

And the TGI (SN12C renal)?
Its TGI is over 100 µM.

What about the GI50 (SK-MEL-5 melanoma) of the same compound?
Its GI50 is over 100 µM.

What about the TGI (SK-MEL-5 melanoma) of the same compound?
The TGI was over 100 µM.

And the GI50 (BT-549 breast)?
The GI50 was over 100 µM.

And the TGI (BT-549 breast)?
The TGI was over 100 µM.

And the GI50 (UO-31 renal)?
The GI50 was over 100 µM.

What about the TGI (UO-31 renal) of the same compound?
Its TGI is over 100 µM.

And the GI50 (T-47D breast)?
Its GI50 is over 100 µM.

What about the TGI (T-47D breast) of the same compound?
The TGI was over 100 µM.

What about the GI50 (SK-OV-3 ovarian) of the same compound?
The GI50 was over 100 µM.

What about the TGI (SK-OV-3 ovarian) of the same compound?
The TGI was over 100 µM.

What about the GI50 (786-0 renal) of the same compound?
The GI50 was over 100 µM.

What about the TGI (786-0 renal) of the same compound?
The TGI was over 100 µM.

What about the GI50 (NCI/ADR-RES ovarian) of the same compound?
Its GI50 is over 100 µM.

And the TGI (NCI/ADR-RES ovarian)?
Its TGI is over 100 µM.

What about the GI50 (U251 CNS) of the same compound?
The GI50 was over 100 µM.

What about the TGI (U251 CNS) of the same compound?
Its TGI is over 100 µM.

What about the GI50 (ACHN renal) of the same compound?
Its GI50 is over 100 µM.

And the TGI (ACHN renal)?
Its TGI is over 100 µM.

And the GI50 (K-562 leukemia)?
The GI50 was 56.6 µM.

What about the TGI (K-562 leukemia) of the same compound?
The TGI was over 100 µM.

What about the GI50 (SK-MEL-28 melanoma) of the same compound?
Its GI50 is over 100 µM.

And the TGI (SK-MEL-28 melanoma)?
Its TGI is over 100 µM.

And the GI50 (HT29 colon)?
Its GI50 is over 100 µM.

What about the TGI (HT29 colon) of the same compound?
Its TGI is over 100 µM.

What about the GI50 (NCI-H23 lung) of the same compound?
Its GI50 is over 100 µM.

What about the TGI (NCI-H23 lung) of the same compound?
Its TGI is over 100 µM.

What about the GI50 (MCF7 breast) of the same compound?
The GI50 was over 100 µM.

What about the TGI (MCF7 breast) of the same compound?
Its TGI is over 100 µM.

What about the GI50 (HOP-62 NSCLC) of the same compound?
Its GI50 is over 100 µM.

And the TGI (HOP-62 NSCLC)?
Its TGI is over 100 µM.

What about the GI50 (TK-10 renal) of the same compound?
Its GI50 is over 100 µM.

And the TGI (TK-10 renal)?
The TGI was over 100 µM.

What about the GI50 (SF-295 CNS) of the same compound?
Its GI50 is over 100 µM.

And the TGI (SF-295 CNS)?
Its TGI is over 100 µM.

And the GI50 (DU-145 prostate)?
The GI50 was over 100 µM.

And the TGI (DU-145 prostate)?
Its TGI is over 100 µM.

What about the GI50 (MALME-3M melanoma) of the same compound?
The GI50 was over 100 µM.

What about the TGI (MALME-3M melanoma) of the same compound?
Its TGI is over 100 µM.

And the GI50 (EKVX NSCLC)?
Its GI50 is over 100 µM.

And the TGI (EKVX NSCLC)?
Its TGI is over 100 µM.

What about the GI50 (UACC-257 melanoma) of the same compound?
Its GI50 is over 100 µM.

And the TGI (UACC-257 melanoma)?
The TGI was over 100 µM.

And the GI50 (LOX IMVI melanoma)?
The GI50 was over 100 µM.

And the TGI (LOX IMVI melanoma)?
Its TGI is over 100 µM.

And the GI50 (A549 NSCLC)?
The GI50 was over 100 µM.

What about the TGI (A549 NSCLC) of the same compound?
The TGI was over 100 µM.

What about the GI50 (RXF 393 renal) of the same compound?
Its GI50 is over 100 µM.

What about the TGI (RXF 393 renal) of the same compound?
Its TGI is over 100 µM.

What about the GI50 (HCT-15 colon) of the same compound?
The GI50 was over 100 µM.

And the TGI (HCT-15 colon)?
The TGI was over 100 µM.

And the GI50 (MDA-MB-231 breast)?
The GI50 was over 100 µM.

What about the TGI (MDA-MB-231 breast) of the same compound?
The TGI was over 100 µM.

What about the GI50 (COLO 205 colon) of the same compound?
The GI50 was over 100 µM.

And the TGI (COLO 205 colon)?
The TGI was over 100 µM.

And the GI50 (OVCAR-4 ovarian)?
The GI50 was over 100 µM.

And the TGI (OVCAR-4 ovarian)?
The TGI was over 100 µM.

And the GI50 (NCI-H226 lung)?
Its GI50 is over 100 µM.

What about the TGI (NCI-H226 lung) of the same compound?
The TGI was over 100 µM.

And the GI50 (SW-620 colon)?
Its GI50 is over 100 µM.

What about the TGI (SW-620 colon) of the same compound?
The TGI was over 100 µM.

What about the GI50 (NCI-H322M lung) of the same compound?
Its GI50 is over 100 µM.

What about the TGI (NCI-H322M lung) of the same compound?
Its TGI is over 100 µM.

What about the GI50 (NCI-H460 lung) of the same compound?
Its GI50 is over 100 µM.

And the TGI (NCI-H460 lung)?
Its TGI is over 100 µM.

And the GI50 (NCI-H522 lung)?
Its GI50 is over 100 µM.

What about the TGI (NCI-H522 lung) of the same compound?
Its TGI is over 100 µM.

And the GI50 (OVCAR-3 ovarian)?
Its GI50 is over 100 µM.

What about the TGI (OVCAR-3 ovarian) of the same compound?
The TGI was over 100 µM.

What about the GI50 (SK-MEL-2 melanoma) of the same compound?
Its GI50 is over 100 µM.

And the TGI (SK-MEL-2 melanoma)?
Its TGI is over 100 µM.

And the GI50 (KM12 colon)?
The GI50 was over 100 µM.

And the TGI (KM12 colon)?
Its TGI is over 100 µM.

What about the GI50 (OVCAR-5 ovarian) of the same compound?
Its GI50 is over 100 µM.

What about the TGI (OVCAR-5 ovarian) of the same compound?
The TGI was over 100 µM.

What about the GI50 (SNB-19 CNS) of the same compound?
The GI50 was over 100 µM.

What about the TGI (SNB-19 CNS) of the same compound?
The TGI was over 100 µM.

And the GI50 (RPMI-8226 leukemia)?
Its GI50 is over 100 µM.

What about the TGI (RPMI-8226 leukemia) of the same compound?
The TGI was over 100 µM.

What about the GI50 (MDA-MB-435) of the same compound?
Its GI50 is over 100 µM.

And the TGI (MDA-MB-435)?
The TGI was over 100 µM.
